Earlier results in patent US9182414B2, “Methods for identifying a GLP-1 secretagogue” (Arena Pharmaceuticals, Inc., priority 2005, dated 2015).

The chains behind the UniProt entries cited, without tags or fusion partners.
UniProt P27487, whole entry: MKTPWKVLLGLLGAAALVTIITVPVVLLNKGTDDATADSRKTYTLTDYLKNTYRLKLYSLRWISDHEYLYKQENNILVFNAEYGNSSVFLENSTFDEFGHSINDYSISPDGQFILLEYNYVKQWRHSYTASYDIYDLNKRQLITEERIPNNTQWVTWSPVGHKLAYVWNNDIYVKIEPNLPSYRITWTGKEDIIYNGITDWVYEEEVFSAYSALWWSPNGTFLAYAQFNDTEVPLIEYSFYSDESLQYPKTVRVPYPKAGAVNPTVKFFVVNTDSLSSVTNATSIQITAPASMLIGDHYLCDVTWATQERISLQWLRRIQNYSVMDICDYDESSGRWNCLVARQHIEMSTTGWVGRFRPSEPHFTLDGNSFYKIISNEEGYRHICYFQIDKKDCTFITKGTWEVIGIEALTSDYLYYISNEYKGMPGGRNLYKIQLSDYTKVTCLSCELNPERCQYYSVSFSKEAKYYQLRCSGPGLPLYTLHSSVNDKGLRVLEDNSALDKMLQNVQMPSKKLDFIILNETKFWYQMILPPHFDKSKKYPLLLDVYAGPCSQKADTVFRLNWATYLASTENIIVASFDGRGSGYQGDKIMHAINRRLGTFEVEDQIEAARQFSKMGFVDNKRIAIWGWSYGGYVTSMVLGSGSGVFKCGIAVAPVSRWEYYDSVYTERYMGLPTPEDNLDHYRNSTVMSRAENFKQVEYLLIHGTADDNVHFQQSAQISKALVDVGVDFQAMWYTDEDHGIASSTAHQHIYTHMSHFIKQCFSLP

Key:
[1] = target: T1, DPP-IV (Homo sapiens, UniProt P27487)
[2] = target: T1, DPP-IV; conditions: in vivo

For “1-[2-[5-cyanopyridin-2-yl)amino]ethylamino]acetyl-2-cyano-(S)-pyrrolidine [NVP-DPP728]”, the “selectivity as DPP-IV inhibitor” value [1] is given as “selective DPP-IV inhibitor” and the oral activity [2] is given as “orally active”.
